# Laboratory results as given in EP1301480B1, “1,3-DISUBSTITUTED AND 1,3,3-TRISUBSTITUTED PYRROLIDINES AS HISTAMINE-3 RECEPTOR LIGANDS AND THEIR THERAPEUTIC APPLICATIONS” (ABBOTT LABORATORIES, priority 2000, dated 2002).
# Protein sequences, listed by entry. Tags and fused reporters are not part of them. Lines headed by an entry give the natural chain unless they say otherwise; changes in a name come on top.
# UniProt Q9QYN8: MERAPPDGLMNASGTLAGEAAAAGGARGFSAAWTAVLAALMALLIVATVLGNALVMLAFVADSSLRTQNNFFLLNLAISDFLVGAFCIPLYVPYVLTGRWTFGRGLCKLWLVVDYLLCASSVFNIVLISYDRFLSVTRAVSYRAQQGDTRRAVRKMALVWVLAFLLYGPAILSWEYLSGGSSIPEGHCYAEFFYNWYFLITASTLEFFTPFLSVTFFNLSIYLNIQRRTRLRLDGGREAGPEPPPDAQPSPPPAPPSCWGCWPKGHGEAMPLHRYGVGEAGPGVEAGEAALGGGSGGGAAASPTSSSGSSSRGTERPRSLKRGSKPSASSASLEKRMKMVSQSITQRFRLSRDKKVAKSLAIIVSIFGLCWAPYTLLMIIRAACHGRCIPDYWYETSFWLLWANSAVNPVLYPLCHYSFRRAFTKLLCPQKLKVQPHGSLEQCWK
# Molecular target: T1, histamine-3 receptor (Rattus norvegicus, UniProt Q9QYN8)
# T1 construct: from tissue; host or cells: male Sprague-Dawley rat brain cortex membranes
# Assay: Histamine-3 receptor binding: displacement of (3H)-N-α-methylhistamine from rat cortical membranes
# Parameters: species or system male Sprague-Dawley rat
# Settings: (3H)-N-α-methylhistamine (~0.6 nM), 30 minutes at 25 °C, pH 7.7, Cheng-Prusoff equation
# Description: Briefly, male Sprague-Dawley rat brain cortices were homogenized (1 g tissue/10 mL buffer) in 50 mM Tris-HCl/5 mM EDTA containing protease inhibitor cocktail (Calbiochem) using a polytron set at 20,500 rpm. Homogenates were centrifuged for 20 minutes at 40,000xg. The supernatant was decanted, and pellets were weighed. The pellet was resuspended by polytron homogenization in 40 mL 50 mM Tris-HCI/5 mM EDTA with protease inhibitors and centrifuged for 20 minutes at 40,000xg. […] Test compounds were dissolved in DMSO to provide a 20 mM solution, serially diluted and then added to the incubation mixtures prior to initiating the incubation assay by addition of the membranes. Thioperamide (3 µM) was used to determine nonspecific binding. Binding incubations were conducted for 30 minutes at 25 °C and terminated by addition of 2 mL of ice cold 50 mM Tris-HCl (pH 7.7) and filtration through 0.3% polyethylenimine-soaked Unifilter plates (Packard). These filters were washed 4 additional times with 2 mL of ice-cold 50 mM Tris-HCl and dried for 1 hour. Radioactivity was determined using liquid scintillation counting techniques. Results were analyzed by Hill transformation and Ki values were determined using the Cheng-Prusoff equation.
smiles,measurement,value
"CN[C@@H]1CCN(CCCOc2ccc(-c3ccc(C#N)cc3)cc2)C1 [Example 110, 4'-{3-[(3R)-3-(methylamino)pyrrolidinyl]propoxy}[1,1'-biphenyl]-4-carbonitrile]",Ki,30 nM
